Assay results as given in PMC6692047, “Ddc2^ATRIP promotes Mec1^ATR activation at RPA-ssDNA tracts” (PLoS Genetics, 2019).

How the values were obtained:
Mec1-Ddc2-S4 complex = target: T1, Mec1-Ddc2-S4 complex (budding yeast, UniProt P38111; Q04377, K263E | H382Y); assay: pull-down; streptavidin beads coated with biotinylated oligonucleotide bio-oligo(dN)80 (5 pmol), incubated with RPA (1 pmol) for 30 min, then with Mec1-Ddc2, Mec1-Ddc2-S4, MBP, MBP-Ddc2 or MBP-Ddc2-S4 (0.5 pmol) for 30 min; buffer B (20 mM Tris-HCl pH 7.5, 100 mM NaCl, 0.01% NP-40, 10% glycerol, 100 μg/ml BSA), 30°C; immunoblot of captured proteins; details: both partners purified
T1 construct: Mec1 (ATR homolog), budding yeast; expressed from pRS424-GAL-FLAG-MEC1; Ddc2 (ATRIP homolog), budding yeast, with the two ddc2-S4 substitutions; also called Mec1-Ddc2 complex containing Ddc2-S4 mutant; source: S. cerevisiae (KSC3218), overexpressed from the GAL promoter, purified (ANTI-FLAG-M2 agarose, Ni-NTA agarose); not shown: HA, N-terminal, kept

Mec1-Ddc2 complex = target: T2, Mec1-Ddc2 complex (budding yeast, UniProt P38111; Q04377); assay: pull-down; Mec1-Ddc2 (0.5 pmol) and RPA (1 pmol) incubated with ANTI-FLAG-M2 agarose with or without bio-oligo(dN)80 (5 pmol); buffer B (20 mM Tris-HCl pH 7.5, 100 mM NaCl, 0.01% NP-40, 10% glycerol, 100 μg/ml BSA), 30 min, 30°C; immunoblot with anti-FLAG, anti-HA, anti-Rfa1; details: both partners purified
T2 construct: Mec1 (ATR homolog), budding yeast; expressed from pRS424-GAL-FLAG-MEC1; Ddc2 (ATRIP homolog), budding yeast; also called ATR-ATRIP homolog; source: S. cerevisiae (KSC3218), overexpressed from the GAL promoter, purified (ANTI-FLAG-M2 agarose, Ni-NTA agarose); not shown: HA, N-terminal, kept; copies: 2 + 2

B1: Replication protein A (RPA), consisting of Rfa1, Rfa2 and Rfa3 (complex, budding yeast)
chain 1: MSSVQLSRGDFHSIFTNKQRYDNPTGGVYQVYNTRKSDGANSNRKNLIMISDGIYHMKALLRNQAASKFQSMELQRGDIIRVIIAEPAIVRERKKYVLLVDDFELVQSRADMVNQTSTFLDNYFSEHPNETLKDEDITDSGNVANQTNASNAGVPDMLHSNSNLNANERKFANENPNSQKTRPIFAIEQLSPYQNVWTIKARVSYKGEIKTWHNQRGDGKLFNVNFLDTSGEIRATAFNDFATKFNEILQEGKVYYVSKAKLQPAKPQFTNLTHPYELNLDRDTVIEECFDESNVPKTHFNFIKLDAIQNQEVNSNVDVLGIIQTINPHFELTSRAGKKFDRRDITIVDDSGFSISVGLWNQQALDFNLPEGSVAAIKGVRVTDFGGKSLSMGFSSTLIPNPEIPEAYALKGWYDSKGRNANFITLKQEPGMGGQSAASLTKFIAQRITIARAQAENLGRSEKGDFFSVKAAISFLKVDNFAYPACSNENCNKKVLEQPDGTWRCEKCDTNNARPNWRYILTISIIDETNQLWLTLFDDQAKQLLGVDANTLMSLKEEDPNEFTKITQSIQMNEYDFRIRAREDTYNDQSRIRYTVANLHSLNYRAEADYLADELSKALLA
chain 2: MATYQPYNEYSSVTGGGFENSESRPGSGESETNTRVNTLTPVTIKQILESKQDIQDGPFVSHNQELHHVCFVGVVRNITDHTANIFLTIEDGTGQIEVRKWSEDANDLAAGNDDSSGKGYGSQVAQQFEIGGYVKVFGALKEFGGKKNIQYAVIKPIDSFNEVLTHHLEVIKCHSIASGMMKQPLESASNNNGQSLFVKDDNDTSSGSSPLQRILEFCKKQCEGKDANSFAVPIPLISQSLNLDETTVRNCCTTLTDQGFIYPTFDDNNFFAL
chain 3: MASETPRVDPTEISNVNAPVFRIIAQIKSQPTESQLILQSPTISSKNGSEVEMITLNNIRVSMNKTFEIDSWYEFVCRNNDDGELGFLILDAVLCKFKENEDLSLNGVVALQRLCKKYPEIY
notes: Rfa1, subunit of budding yeast RPA; Rfa2, subunit of budding yeast RPA; Rfa3, subunit of budding yeast RPA; also called budding yeast RPA protein; source: purified as described [83]; copies: + +
binding result (Mec1-Ddc2-S4 complex): binds
binding result (Mec1-Ddc2 complex): binds
